Results taken from US20070021391A1, “Preventive/remedy for urinary disturbance” (priority 2003, published 2007).

Amino acid sequences for entries named in this document (tags omitted). Residues count along the entry.
UniProt P06276, 29-602: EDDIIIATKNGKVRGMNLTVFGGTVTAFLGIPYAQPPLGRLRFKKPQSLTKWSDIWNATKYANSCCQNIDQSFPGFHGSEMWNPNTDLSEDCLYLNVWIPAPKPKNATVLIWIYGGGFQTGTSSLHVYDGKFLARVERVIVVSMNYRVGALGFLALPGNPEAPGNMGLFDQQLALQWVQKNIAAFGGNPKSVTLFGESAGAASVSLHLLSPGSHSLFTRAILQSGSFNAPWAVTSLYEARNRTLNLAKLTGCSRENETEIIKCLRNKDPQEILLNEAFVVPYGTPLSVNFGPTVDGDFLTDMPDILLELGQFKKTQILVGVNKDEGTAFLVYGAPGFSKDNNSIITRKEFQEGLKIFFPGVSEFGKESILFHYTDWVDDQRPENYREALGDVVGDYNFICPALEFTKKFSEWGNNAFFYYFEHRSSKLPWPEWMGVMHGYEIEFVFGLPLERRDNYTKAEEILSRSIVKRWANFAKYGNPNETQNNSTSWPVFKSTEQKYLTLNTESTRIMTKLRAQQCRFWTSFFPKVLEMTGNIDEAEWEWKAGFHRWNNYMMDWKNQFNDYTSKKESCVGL

Target: T1, butyrylcholine esterase of human serum origin (Homo sapiens, UniProt P06276)
T1 construct: butyrylcholine esterase of human serum origin; purchased Biogenesis, Poole, UK; host or cells: human serum
Assay: biochemical
Procedure: The AChE inhibitory activity and the BuChE inhibitory activity were determined by a thiocholine method (Ellman method) using acetylcholine esterase of human erythrocyte origin (Sigma, St. Louis, Mo., USA) and butyrylcholine esterase of human serum origin (Biogenesis, Poole, UK). Acetylcholine esterase or butyrylcholine esterase was diluted to a concentration of 0.2 IU/mL with 80 mM tris-HCL buffers (pH=7.4) containing 0.3% bovine serum albumin (BSA) to prepare an enzyme preparation. […]. The stock solution was diluted at 3-fold common ratio with 10% DMSO and 80 mM tris-HCl buffers containing 0.3% BSA. […] Thereto, 50 μL of 5 mM 5,5-dithio-bis(2-nitrobenzoic acid) (Sigma, St. Louis, Mo., USA) and 50 μL of 4 mM acetylthiocholine iodide (Sigma) or 4 mM butyrylthiocholine chloride were added and shaken again, and then the increase of light absorption at 412 nm was immediately measured at 30 second-intervals for 10 minutes with a microplate reader (Spectra rainbow thermo, TECAN, Austria). […] The % of control of the increase in light absorption was calculated at each concentration with respect to the respective drugs. % of control=increase in light absorption of drug/increase in light absorption of control×100

CC(C)NP(=O)(NC(C)C)OP(=O)(NC(C)C)NC(C)C [iso-OMPA, tetraisopropylpyrophosphoramide]
IC50: 3.2 µM
